pIC50: −log10 of the molar value.
Molecular target: Cannabinoid receptor 1 (Cricetulus griseus, UniProt Q99NU1)
Experiment: CB1 Receptor Binding Assay (In Vitro)
Experimental: The target compounds were evaluated using a binding assay towards the CB1 receptor expressed on the membranes of Chinese hamster ovarian (CHO) cells. Rimonabant was used as the positive control and DMSO was used as the blank control. The potent synthetic cannabinoid agonist, [3H]-CP55940, was used as a radioligand (Figure 1). The CHO cells were incubated in 96-well microtiter plates. Various concentrations of the synthesised cannabinoid ligands were added and incubated for 10 min at 37°C. Then the [3H]-CP55940 was added at a final concentration of 1.7 nM and incubated for another 30 min at 37°C. The cells were lysed and scintillation fluid was added. The radioactivity was quantitated by liquid scintillation spectrometry [Menozzi et al., Eur. J. Med. Chem., 43:2627-2638]. There were three parallels in the tests.

Protein sequences, listed by entry. Tags and fused reporters are not part of them.
UniProt Q99NU1, whole entry: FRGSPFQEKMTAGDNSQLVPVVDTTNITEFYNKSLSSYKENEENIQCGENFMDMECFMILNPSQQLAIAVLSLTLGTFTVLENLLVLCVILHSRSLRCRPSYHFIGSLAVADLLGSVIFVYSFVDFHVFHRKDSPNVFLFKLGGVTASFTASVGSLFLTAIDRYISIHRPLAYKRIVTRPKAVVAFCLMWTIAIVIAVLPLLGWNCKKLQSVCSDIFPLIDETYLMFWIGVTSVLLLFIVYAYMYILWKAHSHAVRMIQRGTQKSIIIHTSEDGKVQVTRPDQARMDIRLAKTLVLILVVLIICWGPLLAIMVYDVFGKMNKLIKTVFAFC

- pIC50: 8.33
SMILES: Cc1c(C(=O)NN2CCCCC2)nn(-c2ccc(Cl)cc2Cl)c1-c1ccc(Cl)cc1 [SR141716]
